Literature values as cited in US20210346497A1, “Methods of Treating Cancer” (Tesaro, Inc., priority 2018, published 2021).

Test system: Ewing's sarcoma, ALL, NSCLC, SCLC cell lines and tumor cell lines with homozygous inactivation of the ATM gene
Details: selected Ewing's sarcoma, ATM-inactivated tumor cell lines

Cc1ccc(S(=O)(=O)O)cc1.NC(=O)c1cccc2cn(-c3ccc([C@@H]4CCCNC4)cc3)nc12 [Niraparib, (3S)-3-[4-{7-(aminocarbonyl)-2H-indazol-2-yl}phenyl]piperidine]
cytotoxicity: selectively cytotoxic
